Measurements: patent US8772343B2, “Chemical compounds” (Pfizer Limited, priority 2010, dated 2014)

Amino acid sequences for entries named in this document (tags omitted).
UniProt Q15858, whole entry: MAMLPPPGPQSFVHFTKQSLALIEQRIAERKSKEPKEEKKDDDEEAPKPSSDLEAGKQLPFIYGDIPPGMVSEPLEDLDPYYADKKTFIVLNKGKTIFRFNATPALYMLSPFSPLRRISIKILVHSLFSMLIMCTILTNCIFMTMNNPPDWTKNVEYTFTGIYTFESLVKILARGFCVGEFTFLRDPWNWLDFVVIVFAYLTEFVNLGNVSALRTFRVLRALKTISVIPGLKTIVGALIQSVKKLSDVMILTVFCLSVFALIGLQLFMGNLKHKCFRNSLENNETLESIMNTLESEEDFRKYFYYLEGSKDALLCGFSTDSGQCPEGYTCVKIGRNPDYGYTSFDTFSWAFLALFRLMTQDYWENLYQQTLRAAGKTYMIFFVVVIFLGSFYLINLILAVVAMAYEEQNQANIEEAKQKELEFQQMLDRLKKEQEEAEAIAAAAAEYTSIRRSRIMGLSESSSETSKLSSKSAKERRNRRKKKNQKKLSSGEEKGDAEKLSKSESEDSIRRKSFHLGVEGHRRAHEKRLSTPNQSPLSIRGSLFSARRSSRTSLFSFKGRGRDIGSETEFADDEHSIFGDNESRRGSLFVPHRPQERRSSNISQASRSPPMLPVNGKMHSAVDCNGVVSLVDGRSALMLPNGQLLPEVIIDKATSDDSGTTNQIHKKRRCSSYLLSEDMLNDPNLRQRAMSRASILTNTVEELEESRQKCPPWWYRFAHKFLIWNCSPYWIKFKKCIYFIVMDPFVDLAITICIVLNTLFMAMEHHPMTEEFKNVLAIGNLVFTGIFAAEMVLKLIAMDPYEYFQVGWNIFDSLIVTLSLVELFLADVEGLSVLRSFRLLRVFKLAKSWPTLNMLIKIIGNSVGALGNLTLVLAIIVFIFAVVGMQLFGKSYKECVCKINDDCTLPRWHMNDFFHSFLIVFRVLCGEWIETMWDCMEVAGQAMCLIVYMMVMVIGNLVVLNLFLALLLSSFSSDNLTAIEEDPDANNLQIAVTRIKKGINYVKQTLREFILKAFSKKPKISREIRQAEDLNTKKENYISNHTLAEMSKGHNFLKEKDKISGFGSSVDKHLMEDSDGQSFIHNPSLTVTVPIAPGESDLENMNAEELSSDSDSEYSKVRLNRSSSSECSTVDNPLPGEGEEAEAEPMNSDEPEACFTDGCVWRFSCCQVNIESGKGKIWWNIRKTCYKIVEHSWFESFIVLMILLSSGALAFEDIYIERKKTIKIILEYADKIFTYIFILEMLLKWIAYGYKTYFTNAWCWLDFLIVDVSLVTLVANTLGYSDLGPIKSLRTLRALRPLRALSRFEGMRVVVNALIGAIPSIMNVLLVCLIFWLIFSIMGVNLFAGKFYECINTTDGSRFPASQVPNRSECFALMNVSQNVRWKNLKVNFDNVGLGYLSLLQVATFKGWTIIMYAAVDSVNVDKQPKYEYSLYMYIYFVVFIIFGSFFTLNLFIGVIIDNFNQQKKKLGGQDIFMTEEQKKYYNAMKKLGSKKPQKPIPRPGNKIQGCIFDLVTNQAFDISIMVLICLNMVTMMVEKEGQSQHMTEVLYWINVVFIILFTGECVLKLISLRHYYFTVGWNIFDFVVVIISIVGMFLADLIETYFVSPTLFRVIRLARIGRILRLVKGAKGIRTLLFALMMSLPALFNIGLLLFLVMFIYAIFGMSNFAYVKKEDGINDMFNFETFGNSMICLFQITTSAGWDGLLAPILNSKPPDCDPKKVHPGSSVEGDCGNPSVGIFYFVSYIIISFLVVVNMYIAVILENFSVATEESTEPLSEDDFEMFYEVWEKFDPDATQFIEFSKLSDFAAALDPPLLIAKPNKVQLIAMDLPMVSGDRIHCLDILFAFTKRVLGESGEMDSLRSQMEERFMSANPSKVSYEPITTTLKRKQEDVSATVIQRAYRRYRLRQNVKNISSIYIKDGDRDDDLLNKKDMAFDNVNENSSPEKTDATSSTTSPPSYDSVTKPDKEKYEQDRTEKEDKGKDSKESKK

Molecular target: Nav1.7 (or SCN9A) channel (Homo sapiens, UniProt Q15858)
Assay: Nav1.7 PatchXpress automated whole-cell electrophysiology in HEK cells expressing hSCN9A
Conditions: read-out: Nav1.7 EIC50, estimated IC50 from single point data, PatchXpress assay, held at V1/2 of inactivation
Procedure: The ability of the compounds of formula (I) to block the Nav1.7 (or SCN9A) channel were measured using the assay described below.
Human Embryonic Kidney (HEK) cells were transfected with an hSCN9A construct using lipofectamine reagent (Invitrogen), using standard techniques. Cells stably expressing the hSCN9A constructs were identified by their resistance to G-418 (400 μg/ml). Clones were screened for expression using the whole-cell voltage-clamp technique.
HEK cells stably transfected with hSCN9A were maintained in DMEM medium supplemented with 10% heat-inactivated fetal bovine serum and 400 μg/ml G-418 in an incubator at 37° C. with a humidified atmosphere of 10% CO2. […]
hSCN9A currents in HEK cells were measured using the whole-cell configuration of the patch-clamp technique (Hamill et al., 1981). […]
HEK cells stably transfected with hSCN9A were viewed under Hoffman contrast optics and placed in front of an array of flow pipes emitting either control or compound-containing extracellular solutions. […] The voltage-dependence of inactivation was determined by applying a series of depolarizing prepulses (8 sec long in 10 mV increments) from a negative holding potential. […] Compounds were tested for their ability to inhibit hSCN9A sodium channels by activating the channel with a 20 msec voltage step to 0 mV following an 8 second conditioning prepulse to the empirically determined V1/2. […]

Q: `COc1ncccc1-c1cc(C(=O)NS(C)(=O)=O)c(F)cc1Oc1ccc(Cl)cc1` was tested. Which IC50 did it give?
A: Its IC50 is 100 nM.
